Test results: ChEMBL document CHEMBL5344440, “Fragment Merging, Growing, and Linking Identify New Trypanothione Reductase Inhibitors for Leishmaniasis” (J Med Chem, 2024)

Molecular target: Trypanothione reductase (Leishmania infantum) (UniProt A4HSF7)
Experiment: Inhibition of Leishmania infantum Trypanothione reductase expressed in Escherichia coli BL21 (DE3) assessed as enzyme residual activity using trypanothione as substrate at 100 uM preincubated for 3 mins followed NADPH addition by spectrophotometric analysis

CN1CCN(C(=O)c2ccc(F)cc2)CC1
Activity: 78.5%
